According to US20030017565A1, “COMPOSITION AND METHOD FOR TREATING A POROUS ARTICLE AND USE THEREOF” (priority 1996, published 2003):

Test: leaching of Japan cedar blocks, liquid treatment agent stored 2 weeks (Example 21)
Format: physicochemical
Conditions: liquid agent stored airtight 2 weeks, diluted 10-fold; species as bracketed (Copper, Zinc, Nickel, Boron, H = hinokitiol), else the agent named
Protocol: Further, 6 g of the powdery treatment agent obtained in the same manner as described above was dissolved in 12 ml of deionized water to obtain a liquid treatment agent for a porous article. The liquid treatment agent was transferred into a 20 ml screw capped test tube. After the test tube stand airtightly at room temperature for 2 weeks, the liquid treatment agent was diluted 10-fold with deionized water to prepare a solution for treating a porous article. Japan cedar wood blocks were subjected to reduced pressure impregnation treatment with the solution thus obtained, drying/macromolecularization reaction, and elution treatment in the same manner as in Examples 3 and 4. The amounts of the lignosulfonic acid which were eluted were calculated and compared taking the amounts of it injected upon the impregnation treatment as 100%. The results are shown in Table 13, from which it can be seen that even with the liquid treatment agent, effective treatment of porous articles is possible.

With `OB(O)O` [Boric acid (2 g), Boric acid] the “Elution Rate (%) Chemical Agent” value was 17.8%.
